# Test system: CUTO14 xenografts
# Conditions: after four weeks of treatment; afatinib 6 mg/Kg daily PO; tarloxotinib 48 mg/Kg Qwx4 IP
structure (smiles),measurement,value
"CN(C)CC=CC(=O)Nc1cc2c(Nc3ccc(F)c(Cl)c3)ncnc2cc1O[C@H]1CCOC1 [afatinib, N-[4-[(3-Chloro-4-fluorophenyl)amino]-7-[[(3S)-tetrahydro-3-furanyl]oxy]-6-quinazolinyl]-4(dimethylamino)-2-butenamide]",Effect on tumor growth,did not alter tumor growth

# From patent US11426409B2, “Compounds, compositions and methods for treating or preventing HER-driven drug-resistant cancers” (The Regents of the University of Colorado, priority 2017, dated 2022)
